Results as given in patent US20090202571A1, “Bioreductively-activated prodrugs” (HOPNIC LABORATORY CO., LTD., priority 2004, published 2009).

Details: 5 μmol dm^−3 prodrug, NADPH, pH 7.4, 37° C.

9-[(4,6-O-Ethylidene-β-D-glucopyranosyl)oxy]-5,8,8a,9-tetrahydro-5-(4-(1-(5-nitrothien-2-yl)ethoxy)-3,5-dimethoxyphenyl)furo[3′,4′:6,7]naphtha[2,3-d]-1,3-dioxol-6(5aH)-one [Example 1]
Rate of drug release (pmol/min/mg protein) Anoxic (Anoxic (nitrogen)): 95 pmol/min/mg protein | Rate of drug release (pmol/min/mg protein) Oxic (Oxic (air)): 0 pmol/min/mg protein
